The target of the experiment is FTO (Homo sapiens (Human), UniProt Q9C0B1). Put plainly: FTO enzyme inhibition (m6A dsDNA substrate, DpnII digestion, gel readout). In kind it is biochemical.

Chains of the proteins cited; added tags and fusions are not shown.
UniProt Q9C0B1, whole entry: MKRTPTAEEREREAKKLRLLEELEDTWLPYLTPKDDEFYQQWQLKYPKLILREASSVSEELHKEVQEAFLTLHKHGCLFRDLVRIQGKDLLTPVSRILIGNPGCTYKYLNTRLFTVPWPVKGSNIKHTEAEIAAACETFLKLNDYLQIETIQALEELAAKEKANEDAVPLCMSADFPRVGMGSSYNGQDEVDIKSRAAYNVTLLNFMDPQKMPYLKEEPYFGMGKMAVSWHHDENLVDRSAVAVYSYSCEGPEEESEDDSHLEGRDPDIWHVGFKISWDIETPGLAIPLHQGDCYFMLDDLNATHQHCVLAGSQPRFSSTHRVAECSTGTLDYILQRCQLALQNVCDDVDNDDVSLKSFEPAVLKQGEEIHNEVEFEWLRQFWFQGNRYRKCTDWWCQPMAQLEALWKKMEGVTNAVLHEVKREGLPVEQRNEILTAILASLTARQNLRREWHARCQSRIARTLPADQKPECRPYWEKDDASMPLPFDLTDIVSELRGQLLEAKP

Some results are limits rather than exact numbers.

Compound `Cc1cc(-c2cn[nH]c2)cc(C)c1Nc1ccccc1C(=O)O` returned an Inhibition rate (in vitro inhibition rate on FTO, compound at 50 μM) of 100%. The IC50 – broadly, the point on the concentration scale where inhibition reaches its midpoint – (read-out: IC50 for inhibition of FTO enzyme activity) is less than 5 µM.
